High-throughput results as filed in PubChem.
Only some compounds are listed: those with a hit (about 1.2% of all), similar ones and a draw of the others.
Cneo AK release – Cryptococcus neoformans cell lysis inducers, primary screen, AK release luminescence, single concentration; C. neoformans lysis, adenylate kinase release luminescence, 4 h; normalised: neutral wells 0, clomiphene wells 100; 0.2% of 360,000 active; AID 651654, 2012; lysis activity, % at 15 µM;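 active = mean lysis activity across replicates of at least 80%, whatever share of replicates individually reach that level; inactive = mean lysis activity below 80%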
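read-out = cell lysis signal | test system = log-phase Cryptococcus neoformans yeast cells | input = cells at 5 × 10^6 per mL | medium = fresh YPD growth medium | signal = luminescent adenylate kinase detection reagent | timing = 4 h at 37 °C static, read 1 h later | dosing = single dose | controls = Clomiphene as positive lysis control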
miR122 inh – miR-122 Renilla sensor signal increase in Huh7, primary screen, miR-122 inhibitor project, cell-based, single point, plate reader | activation (reporter increase), % at 12.5 µM | AID 602342, 2012 | Huh7 miR-122 Renilla luciferase sensor, 48 h; neutral wells = 0, positive control = 100 | 0.3% of 340,000 active;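 active = mean replicate activation score at least 90 and every replicate individually at or above 90; inconclusive = only one of the two criteria met; inactive = neither criterion met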;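 also: higher luciferase means less miR-122 activity so hits act as miR-122 inhibitors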
C2C12 statin – suppressors of statin myotoxicity in C2C12 myotubes, primary screen, cell-based, single point, plate reader; C2C12 myotubes + simvastatin, ATP luminescence, 48 h; scaled: DMSO 0, geranylgeraniol control 100; rescue of ATP level, % at 7.49 µM; 0.78% of 330,000 active;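 active = mean ATP rescue above about 67%, or every replicate alone reaching that limit, limit read from the data, passing the limit was not always enough; inconclusive = no clear call, values can overlap the other calls; inactive = mean under the limit and some replicate under it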;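 also: myotubes were challenged with 10 µM simvastatin during compound exposure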
Yeast UUG start – modulators of start codon recognition fidelity in yeast; AID 602363; activity score, % at 18.7 µM; S. cerevisiae UUG-firefly luciferase reporter, luminescence/redox ratio; actives 0.13% (n = 350,000);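 active = replicate mean at a twofold rise or more, about +100% in these data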;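 note: firefly luciferase made from a UUG start codon reports start codon fidelity; reporter light over untreated wells divided by growth signal over untreated wells; some hits fall short of that in this replicate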
Glyco luc inh – increase of ERlucT glycosylation luciferase signal, primary screen, N-linked glycosylation inhibitor project, D54 ERlucT cells, luminescence, set 2. D54 ERlucT glycosylation luciferase reporter, 24 h; percent of 100 nM tunicamycin response. reporter increase, % at 12.5 µM. 0.23% of 360,000 active. AID 588692, 2011;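 active = mean luciferase reporter signal, scaled so untreated is 0 and the glycosylation-blocking control 100, at or above a set limit in every replicate; inconclusive = mean reaches the limit but not every replicate does; inactive = mean below the limit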;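 also: luciferase carries N-glycosylation sites so blocking glycosylation raises the light; 0% = median of neutral control wells and 100% = median of 100 nM tunicamycin wells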
The depositor's hits bear a star; u = inconclusive; x = not tested or not shown; [ ] = remark or other dose.

Each structure is followed by: Cneo AK release | miR122 inh | C2C12 statin | Yeast UUG start | Glyco luc inh
CCC(=O)Nc1ccc2c(c1)OC[C@H](C)N(C(=O)c1ccc(F)cc1)C[C@H](C)[C@H](OC)CN(C)C2=O
  0.2 | x | 8.7 | x | x
CCCC(=O)Nc1ccc2c(c1)C(=O)N(C)C[C@H](OC)[C@H](C)CN(C(=O)c1cccnc1)[C@@H](C)CO2
  -2.2 | x | -8.0 | -1.6 | x
CCCC(=O)Nc1ccc2c(c1)C(=O)N(C)C[C@H](OC)[C@@H](C)CN(C(=O)c1cccnc1)[C@@H](C)CO2
  82.4* | x | -6.1 | 7.0 | x
CCC(=O)Nc1ccc2c(c1)OC[C@H](C)N(C(=O)c1ccc(F)cc1)C[C@@H](C)[C@@H](OC)CN(C)C2=O
  92.0* | x | -13.5 | x | x
CC(C)NC(=O)Nc1cccc2c1O[C@@H](CN(C)S(C)(=O)=O)[C@H](C)CN([C@H](C)CO)C2=O
  -2.4 | 2.0[16.7 µM] | -22.3 | -0.7 | x
COc1ccc(OCC(=O)Nc2nc3ccccc3[nH]2)cc1
  -13.4 | -5.4 | 74.4* | -27.1 | -3.1
O=C(COc1ccc2ccccc2c1)Nc1nc2ccccc2[nH]1
  -4.9 | -7.9 | -2.0 | -21.4 | 0.4
COc1ccc(NC(=O)COc2ccc(Br)cc2)c(OC)c1
  -2.4 | -3.9 | 10.8 | -16.3 | -1.1
COc1ccc(NC(=O)COc2ccccc2)c(OC)c1
  1.2 | -2.7 | 98.1* | -23.6 | -0.2
CN(C)C(=O)c1cccc(-c2ccc3c(c2)[C@@H]2[C@@H](CCN2C(=O)C2CC2)[C@@H](CO)N3)c1
  54.0 | 8.1[16.7 µM] | -13.7 | 18.9 | x
COc1ccc(OCC(=O)Nc2nnc(S(=O)(=O)N3CCCCCC3)s2)cc1
  -0.8 | -3.7 | 112.6* | -16.2 | 1.5
O=C(Cc1cccs1)Nc1ccc(S(=O)(=O)N2CCCCC2)cc1
  0.3 | 131.7* | -4.7 | -9.2 | -3.9
O=C(COc1ccccc1)Nc1ccc(S(=O)(=O)N2CCCCCC2)cc1
  2.7 | -3.3 | -0.2 | 5.3 | -1.2
O=C(COc1ccccc1)Nc1ccc(S(=O)(=O)N2CCCC2)cc1
  -1.0 | 0.8 | 115.9* | -6.2 | 0.4
COc1ccc(CC(=O)OCC(=O)Nc2ccc3[nH]c(=O)[nH]c3c2)cc1OC
  -2.9 | 0.3 | -6.9 | -14.8 | 0.7
C[C@H]1CN([C@@H](C)CO)C(=O)c2cc(C#Cc3ccccc3F)cnc2O[C@@H]1CN(C)S(=O)(=O)c1ccccc1
  -4.5 | -1.7[16.7 µM] | x | 2.9 | x
COCC(=O)N1C[C@@H](C)[C@@H](OC)CN(C)C(=O)c2ccc(NS(C)(=O)=O)cc2OC[C@@H]1C
  -1.6 | x | 7.0 | x | x
Cc1ccc(S(=O)(=O)Nc2ccc3c(c2)C(=O)N([C@H](C)CO)C[C@@H](C)[C@H](CN(C)Cc2ccc(Cl)c(Cl)c2)O3)cc1
  13.0 | -2.8[16.7 µM] | 75.4* | 8.9 | x
C[C@H]1CN([C@@H](C)CO)C(=O)c2cc(NS(=O)(=O)c3ccc(Cl)cc3)ccc2O[C@H]1CN(C)Cc1ccc(Cl)c(Cl)c1
  -6.5 | -9.4[16.7 µM] | 63.5 | 14.6 | x
C[C@@H]1CN([C@@H](C)CO)C(=O)c2cc(NS(=O)(=O)c3ccc(Cl)cc3)ccc2O[C@@H]1CN(C)Cc1ccc(Cl)c(Cl)c1
  -6.1 | -12.4[16.7 µM] | 10.8 | 7.8 | x
Cc1ccc(S(=O)(=O)Nc2ccc3c(c2)C(=O)N([C@@H](C)CO)C[C@@H](C)[C@H](CN(C)Cc2ccc(Cl)c(Cl)c2)O3)cc1
  32.2 | 0.2[16.7 µM] | 94.5* | 9.7 | x
O=C(NN=C1C2CC3CC1CC(Cl)(C3)C2)c1ccccn1
  -0.5 | -5.8 | 6.4 | -12.8 | 0.0
CCSc1nc(C2CC2)cc(-c2ccco2)c1C#N
  -0.3 | -8.9 | 99.8* | -7.2 | 16.6
Cn1c(=O)[nH]c(=O)c2c1nc(N/N=C/c1ccncc1)n2Cc1ccc(F)cc1
  0.6 | -3.2 | x | -6.2 | 19.1
Cn1c(=O)[nH]c(=O)c2c1nc(N/N=C/c1cccnc1)n2Cc1ccc(Cl)cc1
  0.1 | 3.0 | x | -25.3 | 53.2*
CC1=C(n2ccnc2)CCC1=O
  -0.6 | 0.5 | 6.4 | -10.6 | 86.4*
Cc1[nH]c2ccccc2c1C(=O)COC(=O)C1CC(=O)N(Cc2ccccc2)C1 (stereo not drawn)
  2.0 | 13.4 | -7.7 | 2.0 | -0.1
CCOC(=O)c1c(C)[nH]c(C(=O)COC(=O)C2CC(=O)N(Cc3ccccc3)C2)c1C (stereo not drawn)
  0.3 | -3.0 | 91.7* | -6.8 | 1.2
Cc1ccc(S(C)(=O)=O)cc1C(=O)N1CC(C(N)=O)Oc2ccccc21 (stereo not drawn)
  -0.9 | x | 3.1 | -6.0 | -0.2
Cc1sc2nc3c4ccccc4c(NCc4ccco4)nn3c(=O)c2c1C
  -4.4 | 0.9 | x | -9.2 | 1.9
Cc1nc(NCc2ccco2)c2c(C)c(C)sc2n1
  -0.4 | 129.2* | u | -8.3 | 2.1
C[C@H]1CN([C@@H](C)CO)C(=O)c2cccc(NS(=O)(=O)c3cccs3)c2O[C@@H]1CN(C)CC1CCCCC1
  -4.2 | 26.2[16.7 µM] | 7.8 | 5.9 | x
CCN(CC)CC#CCC(C)(c1ccccc1)c1ccccc1
  0.0 | 3.5 | -29.4 | -2.1 | -3.1
COCCNC(=O)[C@@]1(Cc2ccccc2)C=C[C@@H](C)N1C(C)=O
  -1.2 | -1.5 | 120.9* | -5.9 | 1.0
CCC(=O)Nc1ccc2c(c1)C(=O)N(C)[C@@H]1CC[C@H](CC(=O)N[C@@H](C)c3ccccc3)O[C@H]1CO2
  23.4 | 0.0[16.7 µM] | -9.4 | 5.3 | x
COc1ccc(CN2[C@@H](CC(C)=O)c3ccc(/C=C/C(C)=O)cc3S2(=O)=O)cc1
  0.6 | 3.7 | -9.4 | -18.6 | 9.9
COc1cccc(N2[C@@H](CC(C)=O)c3ccc(/C=C/C(C)=O)cc3S2(=O)=O)c1
  0.0 | 36.1 | -5.1 | -18.2 | 37.7*
CO[C@H]1CC[C@@H]2CCOc3ccc(C#N)cc3C(=O)N(C)C[C@@H](C)C(=O)N(C)C[C@H]1O2
  3.8 | x | 64.4 | x | x
CC1CN(C(=O)c2cc(-c3ccncc3)nc3ccccc23)CC(C)O1 (stereo not drawn)
  0.8 | 2.6 | 13.3 | -10.9 | 45.0*
CC1CC(C)CN(C(=O)c2cc(-c3ccncc3)nc3ccccc23)C1 (stereo not drawn)
  2.2 | x | 15.1 | -29.4 | 1.1
C[C@@H]1CCCCO[C@H](CN(C)Cc2ccncc2)[C@@H](C)CN([C@H](C)CO)C(=O)c2cc(NC(=O)c3ccncc3)ccc2O1
  -0.1 | -2.6[16.7 µM] | x | x | x
CC(=O)c1cc2c(cc1NC(=O)c1c(-c3ccccc3)noc1C)OCO2
  3.5 | -1.9 | 84.6* | -15.0 | 2.8
Cc1ccc(N2CCN(C(=O)c3ccccc3Br)CC2)c(C)c1
  0.7 | -1.4 | 80.6* | -14.0 | -1.9
CN(C)/C=C1\N=C(c2cccnc2Oc2ccc(Cl)cc2)OC1=O
  -1.2 | 0.0 | 115.1* | 5.7 | -2.6
CC(C)(C)C(=O)C1=C(O)C(=O)N(Cc2ccccc2)C1c1ccccc1F (stereo not drawn)
  -0.8 | 238.7* | -8.2 | -29.0 | 1.0

Filtered by structure: those above containing a thiophene ring, fused or not.
Each structure is followed by: Cneo AK release | miR122 inh | C2C12 statin | Yeast UUG start | Glyco luc inh
O=C(Cc1cccs1)Nc1ccc(S(=O)(=O)N2CCCCC2)cc1
  0.3 | 131.7* | -4.7 | -9.2 | -3.9
Cc1sc2nc3c4ccccc4c(NCc4ccco4)nn3c(=O)c2c1C
  -4.4 | 0.9 | x | -9.2 | 1.9
Cc1nc(NCc2ccco2)c2c(C)c(C)sc2n1
  -0.4 | 129.2* | u | -8.3 | 2.1
C[C@H]1CN([C@@H](C)CO)C(=O)c2cccc(NS(=O)(=O)c3cccs3)c2O[C@@H]1CN(C)CC1CCCCC1
  -4.2 | 26.2[16.7 µM] | 7.8 | 5.9 | x
